Values quoted from earlier work as cited in patent US10272045B2 (priority 2015, dated 2019).

Details: APL patients, metabolites; cited from earlier work

In the case of C[As](=O)(O)O, the “mean estimated terminal elimination half-life” value is given as 32 h.
